Results published in ChEMBL document CHEMBL1124172 (J Med Chem, 1988).

Tests used:
[1] = tested on: Mus musculus; assay: In vivo antitumor activity against P388 Lymphocytic Leukemia measured as Survivors on day 5 at 25.5 mg/kg; 6/6
[2] = tested on: Mus musculus; assay: In vivo antitumor activity against P388 Lymphocytic Leukemia measured as Survivors on day 5 at 102 mg/kg; 5/5
[3] = tested on: Mus musculus; assay: In vivo antitumor activity against P388 Lymphocytic Leukemia measured as Survivors on day 5 at 12.75 mg/kg; 5/6
[4] = tested on: Mus musculus; assay: In vivo antitumor activity against P388 Lymphocytic Leukemia in mice at 102 mg/kg expressed as T/C value
[5] = tested on: Mus musculus; assay: In vivo antitumor activity against P388 Lymphocytic Leukemia in mice at 12.75 mg/kg expressed as T/C value
[6] = tested on: Mus musculus; assay: In vivo antitumor activity against P388 Lymphocytic Leukemia in mice at 25.5 mg/kg expressed as T/C value
[7] = tested on: Mus musculus; assay: In vivo antitumor activity against P388 Lymphocytic Leukemia measured as Survivors on day 5 at 51 mg/kg; 6/6
[8] = tested on: Mus musculus; assay: In vivo antitumor activity against P388 Lymphocytic Leukemia in mice at 51 mg/kg expressed as T/C value
[9] = tested on: A204; assay: In vitro cytotoxicity against human A204 Rhabdomyosarcoma cell line; type: functional, cell-based
In short: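 A204 human rhabdomyosarcoma soft-agarose colony assay. 10^4 trypsin/EDTA-dissociated cells in 0.3% agarose over a 0.5% agarose base, in DMEM with 10% FCS, at 37 °C and 5% CO2. Compound was applied in an upper medium layer on day 1 for 24 h, then washed out. Colonies >60 µm were counted after 7–9 days by tetrazolium stain and image analysis. Quadruplicates with vehicle controls, at least four concentrations up to 100 or 1000 µg/mL. IC50 from a monoexponential least-squares fit over at least three preparations, mean ± SE.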

[10] = tested on: Mus musculus; assay: In vivo antitumor activity against P388 Lymphocytic Leukemia measured as Survivors on day 5 at 125 mg/kg; 6/6
[11] = tested on: Mus musculus; assay: In vivo antitumor activity against P388 Lymphocytic Leukemia measured as Survivors on day 5 at 15.63 mg/kg; 6/6
[12] = tested on: Mus musculus; assay: In vivo antitumor activity against P388 Lymphocytic Leukemia measured as Survivors on day 5 at 31.25 mg/kg; 6/6
[13] = tested on: Mus musculus; assay: In vivo antitumor activity against P388 Lymphocytic Leukemia in mice at 125 mg/kg expressed as T/C value
[14] = tested on: Mus musculus; assay: In vivo antitumor activity against P388 Lymphocytic Leukemia in mice at 15.63 mg/kg expressed as T/C value
[15] = tested on: Mus musculus; assay: In vivo antitumor activity against P388 Lymphocytic Leukemia in mice at 31.25 mg/kg expressed as T/C value
[16] = tested on: Mus musculus; assay: In vivo antitumor activity against P388 Lymphocytic Leukemia measured as Survivors on day 5 at 62.5 mg/kg; 6/6
[17] = tested on: Mus musculus; assay: In vivo antitumor activity against P388 Lymphocytic Leukemia in mice at 62.5 mg/kg expressed as T/C value
[18] = tested on: Mus musculus; assay: (§1) Weight difference when tested in vivo for antitumor activity against P388 Lymphocytic Leukemia; weight difference expressed as (T-C)
[19] = tested on: P388; assay: as §1
[20] = tested on: Mus musculus; assay: In vivo antitumor activity against P388 Lymphocytic Leukemia measured as Survivors on day 5 at 200 mg/kg, w.r.t. compound 6; 6/6
[21] = tested on: Mus musculus; assay: In vivo antitumor activity against P388 Lymphocytic Leukemia measured as Survivors on day 5 at 150 mg/kg; 6/6
[22] = tested on: Mus musculus; assay: In vivo antitumor activity against P388 Lymphocytic Leukemia measured as Survivors on day 5 at 1600 mg/kg, w.r.t. compound 6; 5/6
[23] = tested on: Mus musculus; assay: In vivo antitumor activity against P388 Lymphocytic Leukemia measured as Survivors on day 5 at 300 mg/kg; 6/6
[24] = tested on: Mus musculus; assay: In vivo antitumor activity against P388 Lymphocytic Leukemia in mice at 37.50 mg/kg expressed as T/C value; details: dose 37.5 mg/kg
[25] = tested on: Mus musculus; assay: In vivo antitumor activity against P388 Lymphocytic Leukemia in mice at 400 mg/kg w.r.t. compound 6 expressed as T/C value
[26] = tested on: Mus musculus; assay: In vivo antitumor activity against P388 Lymphocytic Leukemia measured as Survivors on day 5 at 75 mg/kg; 6/6
[27] = tested on: Mus musculus; assay: In vivo antitumor activity against P388 Lymphocytic Leukemia in mice at 150 mg/kg expressed as T/C value
[28] = tested on: Mus musculus; assay: In vivo antitumor activity against P388 Lymphocytic Leukemia in mice at 1600 mg/kg w.r.t. compound 6 expressed as T/C value; Toxic
[29] = tested on: Mus musculus; assay: In vivo antitumor activity against P388 Lymphocytic Leukemia in mice at 300 mg/kg expressed as T/C value
[30] = tested on: Mus musculus; assay: In vivo antitumor activity against P388 Lymphocytic Leukemia in mice at 200 mg/kg w.r.t. compound 6 expressed as T/C value
[31] = tested on: Mus musculus; assay: In vivo antitumor activity against P388 Lymphocytic Leukemia measured as Survivors on day 5 at 37.5 mg/kg; 6/6
[32] = tested on: Mus musculus; assay: In vivo antitumor activity against P388 Lymphocytic Leukemia measured as Survivors on day 5 at 400 mg/kg, w.r.t. compound 6; 6/6
[33] = tested on: Mus musculus; assay: In vivo antitumor activity against P388 Lymphocytic Leukemia in mice at 75 mg/kg expressed as T/C value
[34] = tested on: Mus musculus; assay: (§2) Weight difference when tested in vivo for antitumor activity against P388 Lymphocytic Leukemia w.r.t. compound 6
[35] = tested on: Mus musculus; assay: as §2; remark: listed apart in the source
[36] = tested on: Mus musculus; assay: In vivo antitumor activity against P388 Lymphocytic Leukemia measured as Survivors on day 5 at 23 mg/kg; 6/6
[37] = tested on: Mus musculus; assay: In vivo antitumor activity against P388 Lymphocytic Leukemia measured as Survivors on day 5 at 11.5 mg/kg; 6/6
[38] = tested on: Mus musculus; assay: In vivo antitumor activity against P388 Lymphocytic Leukemia in mice at 46 mg/kg expressed as T/C value
[39] = tested on: Mus musculus; assay: In vivo antitumor activity against P388 Lymphocytic Leukemia measured as Survivors on day 5 at 92 mg/kg; 6/6
[40] = tested on: Mus musculus; assay: In vivo antitumor activity against P388 Lymphocytic Leukemia in mice at 11.5 mg/kg expressed as T/C value
[41] = tested on: Mus musculus; assay: In vivo antitumor activity against P388 Lymphocytic Leukemia in mice at 23 mg/kg expressed as T/C value
[42] = tested on: Mus musculus; assay: In vivo antitumor activity against P388 Lymphocytic Leukemia measured as Survivors on day 5 at 46 mg/kg; 5/6
[43] = tested on: Mus musculus; assay: In vivo antitumor activity against P388 Lymphocytic Leukemia in mice at 92 mg/kg expressed as T/C value
[44] = tested on: Mus musculus; assay: In vivo antitumor activity against P388 Lymphocytic Leukemia measured as Survivors on day 5 at 20.25 mg/kg; 6/6
[45] = tested on: Mus musculus; assay: In vivo antitumor activity against P388 Lymphocytic Leukemia in mice at 40.50 mg/kg expressed as T/C value; details: dose 40.5 mg/kg
[46] = tested on: Mus musculus; assay: In vivo antitumor activity against P388 Lymphocytic Leukemia measured as Survivors on day 5 at 81 mg/kg; 6/6
[47] = tested on: Mus musculus; assay: In vivo antitumor activity against P388 Lymphocytic Leukemia in mice at 162 mg/kg expressed as T/C value
[48] = tested on: Mus musculus; assay: In vivo antitumor activity against P388 Lymphocytic Leukemia in mice at 20.25 mg/kg expressed as T/C value
[49] = tested on: Mus musculus; assay: In vivo antitumor activity against P388 Lymphocytic Leukemia measured as Survivors on day 5 at 40.50 mg/kg; 6/6; details: dose 40.5 mg/kg
[50] = tested on: Mus musculus; assay: In vivo antitumor activity against P388 Lymphocytic Leukemia in mice at 81 mg/kg expressed as T/C value
[51] = tested on: Mus musculus; assay: In vivo antitumor activity against P388 Lymphocytic Leukemia measured as Survivors on day 5 at 162 mg/kg; 6/6
[52] = tested on: Mus musculus; assay: In vivo antitumor activity against P388 Lymphocytic Leukemia measured as Survivors on day 5 at 19.5 mg/kg; 6/6
[53] = tested on: Mus musculus; assay: In vivo antitumor activity against P388 Lymphocytic Leukemia in mice at 39 mg/kg expressed as T/C value
[54] = tested on: Mus musculus; assay: In vivo antitumor activity against P388 Lymphocytic Leukemia measured as Survivors on day 5 at 78 mg/kg; 6/6
[55] = tested on: Mus musculus; assay: In vivo antitumor activity against P388 Lymphocytic Leukemia measured as Survivors on day 5 at 9.75 mg/kg; 6/6
[56] = tested on: Mus musculus; assay: In vivo antitumor activity against P388 Lymphocytic Leukemia in mice at 19.5 mg/kg expressed as T/C value
[57] = tested on: Mus musculus; assay: In vivo antitumor activity against P388 Lymphocytic Leukemia measured as Survivors on day 5 at 39 mg/kg; 5/6
[58] = tested on: Mus musculus; assay: In vivo antitumor activity against P388 Lymphocytic Leukemia in mice at 78 mg/kg expressed as T/C value
[59] = tested on: Mus musculus; assay: In vivo antitumor activity against P388 Lymphocytic Leukemia in mice at 9.5 mg/kg expressed as T/C value
[60] = tested on: Mus musculus; assay: In vivo antitumor activity against P388 Lymphocytic Leukemia measured as Survivors on day 5 at 1600 mg/kg, w.r.t. compound 6; 6/6
[61] = tested on: Mus musculus; assay: In vivo antitumor activity against P388 Lymphocytic Leukemia in mice at 400 mg/kg expressed as T/C value w.r.t. compound 6
[62] = tested on: Mus musculus; assay: In vivo antitumor activity against P388 Lymphocytic Leukemia measured as Survivors on day 5 at 800 mg/kg, w.r.t. compound 6; 6/6
[63] = tested on: Mus musculus; assay: In vivo antitumor activity against P388 Lymphocytic Leukemia in mice at 1600 mg/kg expressed as T/C value w.r.t. compound 6
[64] = tested on: Mus musculus; assay: In vivo antitumor activity against P388 Lymphocytic Leukemia in mice at 200 mg/kg expressed as T/C value w.r.t. compound 6
[65] = tested on: Mus musculus; assay: In vivo antitumor activity against P388 Lymphocytic Leukemia in mice at 800 mg/kg expressed as T/C value w.r.t. compound 6
[66] = tested on: Mus musculus; assay: Weight difference when tested in vivo for antitumor activity against P388 Lymphocytic Leukemia w.r.t. compound 6; weight difference expressed as (T-C)

CC[C@@](O)(C(=O)O[C@H]1CC[N+]2([O-])CC=C(CO)[C@H]12)c1ccccc1 (stereo partly drawn)
Survivors [1]: 6 | Survivors [2]: 5 | Survivors [3]: 5 | T/C [4]: 97% | T/C [5]: 95% | T/C [6]: 100% | Survivors [7]: 6 | T/C [8]: 103% | IC50 [9]: 32 µg/mL (≈ 96 µM)

CC[C@@](O)(C(=O)OCC1=CC[N+]2([O-])CC[C@@H](O)[C@@H]12)c1ccccc1 (stereo partly drawn)
Survivors [10]: 6 | Survivors [11]: 6 | Survivors [12]: 6 | T/C [13]: 125% | T/C [14]: 110% | T/C [15]: 110% | Survivors [16]: 6 | T/C [17]: 114% | Weight difference [18]: -1.3 | Weight difference [19]: -0.8 and -0.7

CCC(O)(C(=O)OCC1=CC[N+]2([O-])CCC(O)C12)c1ccccc1 (stereo not drawn)
Survivors [20]: 6 | Survivors [21]: 6 | Survivors [22]: 5 | Survivors [23]: 6 | T/C [24]: 146% | T/C [25]: 146% | Survivors [26]: 6 | T/C [27]: 157% | T/C [28]: Toxic | T/C [29]: 166% | T/C [30]: 140% | Survivors [31]: 6 | Survivors [32]: 6 | T/C [33]: 149% | Weight change [34]: -0.7 | Weight difference [19]: -1.7 [middle of 4 runs] | Weight change [35]: -2.9 and -1.7

CC[C@](O)(C(=O)OCC1=CC[N+]2([O-])CC[C@H](O)[C@@H]12)c1ccccc1 (stereo partly drawn)
Survivors [36]: 6 | Survivors [37]: 6 | T/C [38]: 117% | Survivors [39]: 6 | T/C [40]: 106% | T/C [41]: 106% | Survivors [42]: 5 | T/C [43]: 126% | IC50 [9]: 44 µg/mL (≈ 132 µM)

CC[C@](O)(C(=O)OCC1=CC[N+]2([O-])CC[C@@H](O)[C@@H]12)c1ccccc1 (stereo partly drawn)
Survivors [44]: 6 | T/C [45]: 151% | Survivors [46]: 6 | T/C [47]: 214% | T/C [48]: 143% | Survivors [49]: 6 | T/C [50]: 169% | Weight difference [19]: -2.4 [middle of 4 runs] | IC50 [9]: 11 µg/mL (≈ 33 µM) | Survivors [51]: 6

CC[C@@](O)(C(=O)OCC1=CC[N+]2([O-])CC[C@H](O)[C@@H]12)c1ccccc1 (stereo partly drawn)
Survivors [52]: 6 | T/C [53]: 100% | Survivors [54]: 6 | Survivors [55]: 6 | T/C [56]: 106% | Survivors [57]: 5 | T/C [58]: 103% | T/C [59]: 106% | IC50 [9]: 15 µg/mL (≈ 45 µM)

CCC(O)(C(=O)OCC1=CCN2CCC(O)C12)c1ccccc1 (stereo not drawn)
Survivors [20]: 6 | Survivors [60]: 6 | T/C [61]: 151% | Survivors [62]: 6 | T/C [63]: 142% | T/C [64]: 133% | Survivors [32]: 6 | T/C [65]: 160% | Weight difference [66]: -2.2 and -3.2 and -1.6

Converted amounts (≈) assume the structure as drawn. “And” between values parts separate entries of the source, which are not always exact repeats. Identical values can stand only once.
